One compound from ChEMBL document CHEMBL3352041, “Design, synthesis, and biological evaluation of scaffold-based tripeptidomimetic antagonists for CXC chemokine receptor 4 (CXCR4)” (Bioorg Med Chem, 2014) can be followed below.

Sequences of proteins named here, by UniProt entry; tags and fusion partners are left off.
UniProt P61073, whole entry: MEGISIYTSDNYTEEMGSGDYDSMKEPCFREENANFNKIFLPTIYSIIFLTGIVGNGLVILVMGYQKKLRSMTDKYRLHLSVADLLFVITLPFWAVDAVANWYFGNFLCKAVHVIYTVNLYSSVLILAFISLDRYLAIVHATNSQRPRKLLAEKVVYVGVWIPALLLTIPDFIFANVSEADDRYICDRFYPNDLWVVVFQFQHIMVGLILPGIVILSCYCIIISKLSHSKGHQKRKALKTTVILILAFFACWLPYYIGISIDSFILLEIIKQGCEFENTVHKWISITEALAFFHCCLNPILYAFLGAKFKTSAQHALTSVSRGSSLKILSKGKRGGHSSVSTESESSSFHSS

Assay [1] has as its target T1, C-X-C chemokine receptor type 4 (Homo sapiens, UniProt P61073). Briefly: Inhibition of CXCR4 (unknown origin).
For assay [2], the target named is T1, C-X-C chemokine receptor type 4. The assay can be described thus: Antagonist activity at human CXCR4 expressed in COS7 cells assessed as inhibition of [3H]inositol-phosphates formation after 90 mins by scintillation proximity-based functional assay. The format is cell-based, COS-7. The method, boiled down:
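Human CXCR4 cDNA and the Gαi-to-Gαq chimera Gα∆6qi4myr were transiently co-transfected into COS-7 cells by calcium phosphate. Cells were labelled 24 h with [3H]-myo-inositol (2 µCi/mL), then exposed to graded ligand concentrations for 90 min at 37 °C in HBSS with 10 mM LiCl. Cells were lysed with 10 mM formic acid, and [3H]IPs were counted on SPA beads after 8 h. Duplicates; mean of ≥3 experiments.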

`N=C(N)NCCC[C@@H]1NC(=O)[C@@H](CCCNC(=N)N)NC(=O)[C@@H](Cc2ccc(O)cc2)NC(=O)CNC(=O)[C@H](Cc2ccc3ccccc3c2)NC1=O` showed an IC50 in assay [1] of 8 nM. For the same compound, the EC50 in assay [2] was 520 nM.
